pIC50: −log10 of the molar value.
Molecular target: T1, MRP4 (Homo sapiens, UniProt O15439)
T1 construct: infected with a baculovirus construct containing the full-length cDNA encoding MRP4; made in house; host or cells: Hi5 or Sf9 insect cells (baculovirus)
Assay: SPA assay of MRP4 transport activity (3H-folic acid uptake into membrane vesicles)
Type: biochemical
Settings: inhibition of MRP4 transport of 3H-folic acid into membrane vesicles from baculovirus-infected insect cells; Protein A SPA beads, anti-MRP4 rabbit antiserum
Experimental: • 1) Membrane vesicles from insect cells (Hi5 or Sf9) infected with a baculovirus construct containing the full-length cDNA encoding MRP4 are prepared as described by van Aubel et al. (van Aubel et al., 2002) with some modifications: Hi5 cells are cultured in suspension to a cell density of 1×10^6 cells/ml in Insect-Xpress serum free insect cell medium and infected with baculovirus construct containing the full-length cDNA encoding MRP4. Three days after infection, cells are collected by centrifugation at 3000 rpm for 10 min. […] Protein concentration of the membrane preparation is determined using standard methods, e.g. the BCA protein assay (Pierce, product number 23250). • 2) Determination of transport activity of MRP4: Membrane vesicles prepared in 1) are diluted in Tris/sucrose buffer to a concentration of 3.3 μg protein/μl. […] Luminescence signals are measured with the LEADSeeker or TopCount system after 30 min, 1 h, 2 h, 4 h, or up to 24 h. • 3) Calculation of inhibitory effect of a test compound: The relative transport activities of MRP4 determined in the presence of a test compound is calculated as percentage of luminescence determined in the presence of the test compound compared to luminescence determined in the absence of the test compound. […]

By UniProt entry, the sequences of proteins in these tests, tags left out. Where a name states a change or a piece, a line headed by the entry shows the natural chain unless it says otherwise.
UniProt O15439: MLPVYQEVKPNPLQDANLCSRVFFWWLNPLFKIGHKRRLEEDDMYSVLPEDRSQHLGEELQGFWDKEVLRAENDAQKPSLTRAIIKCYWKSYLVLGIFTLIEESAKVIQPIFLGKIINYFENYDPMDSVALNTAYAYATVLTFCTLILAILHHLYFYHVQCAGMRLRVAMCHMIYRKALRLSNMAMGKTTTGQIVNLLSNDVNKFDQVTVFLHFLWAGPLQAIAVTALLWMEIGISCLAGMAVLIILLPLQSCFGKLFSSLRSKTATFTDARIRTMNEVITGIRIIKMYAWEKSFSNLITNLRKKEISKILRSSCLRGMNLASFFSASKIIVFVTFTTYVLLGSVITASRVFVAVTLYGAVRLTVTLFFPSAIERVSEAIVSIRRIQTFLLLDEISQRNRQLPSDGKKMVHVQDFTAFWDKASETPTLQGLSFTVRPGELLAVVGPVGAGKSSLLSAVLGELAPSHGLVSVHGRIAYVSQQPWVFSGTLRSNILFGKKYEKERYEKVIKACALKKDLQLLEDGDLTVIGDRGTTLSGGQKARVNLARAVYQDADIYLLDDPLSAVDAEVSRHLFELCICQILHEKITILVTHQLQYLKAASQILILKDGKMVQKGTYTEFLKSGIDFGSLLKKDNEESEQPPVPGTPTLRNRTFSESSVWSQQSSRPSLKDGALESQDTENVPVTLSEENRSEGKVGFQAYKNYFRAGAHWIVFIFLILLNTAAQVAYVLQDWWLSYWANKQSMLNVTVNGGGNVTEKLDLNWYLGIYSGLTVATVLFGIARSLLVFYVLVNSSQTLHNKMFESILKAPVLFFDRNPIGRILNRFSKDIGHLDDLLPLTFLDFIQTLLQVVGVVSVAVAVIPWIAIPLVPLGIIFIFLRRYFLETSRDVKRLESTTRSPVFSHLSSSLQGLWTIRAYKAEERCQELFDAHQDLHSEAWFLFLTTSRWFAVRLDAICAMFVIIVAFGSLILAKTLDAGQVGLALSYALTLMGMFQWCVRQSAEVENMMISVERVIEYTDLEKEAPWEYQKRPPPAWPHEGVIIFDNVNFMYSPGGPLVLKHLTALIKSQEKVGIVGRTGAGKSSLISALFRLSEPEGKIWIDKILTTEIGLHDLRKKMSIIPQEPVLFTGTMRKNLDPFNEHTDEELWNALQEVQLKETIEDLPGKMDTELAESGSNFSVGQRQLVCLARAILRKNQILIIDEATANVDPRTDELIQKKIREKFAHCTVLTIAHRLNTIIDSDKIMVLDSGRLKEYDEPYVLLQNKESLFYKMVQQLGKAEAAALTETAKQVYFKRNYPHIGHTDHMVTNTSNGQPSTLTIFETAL

pIC50: 5.44
Structure (SMILES): CN(C)C(=O)CCSC(SCCC(=O)O)c1cccc(/C=C/c2ccc3ccc(Cl)cc3n2)c1 (stereo not shown) [MK571]

From patent US20100015727A1, “METHOD FOR DETERMINING TRANSPORT ACTIVITY OF A TRANSPORT PROTEIN” (BOEHRINGER INGELHEIM INTERNATIONAL GMBH, priority 2006, published 2010)
